Biological target: PgP (Homo sapiens, UniProt P08183)
Experiment: Cellular transwell monolayer efflux assay in MDCK cells transfected with TREx-PgP
[1] = 2.5 nM 3H-vinblastine, 250 μM verapamil

Amino acid sequences for entries named in this document (tags omitted).
UniProt P08183, whole entry: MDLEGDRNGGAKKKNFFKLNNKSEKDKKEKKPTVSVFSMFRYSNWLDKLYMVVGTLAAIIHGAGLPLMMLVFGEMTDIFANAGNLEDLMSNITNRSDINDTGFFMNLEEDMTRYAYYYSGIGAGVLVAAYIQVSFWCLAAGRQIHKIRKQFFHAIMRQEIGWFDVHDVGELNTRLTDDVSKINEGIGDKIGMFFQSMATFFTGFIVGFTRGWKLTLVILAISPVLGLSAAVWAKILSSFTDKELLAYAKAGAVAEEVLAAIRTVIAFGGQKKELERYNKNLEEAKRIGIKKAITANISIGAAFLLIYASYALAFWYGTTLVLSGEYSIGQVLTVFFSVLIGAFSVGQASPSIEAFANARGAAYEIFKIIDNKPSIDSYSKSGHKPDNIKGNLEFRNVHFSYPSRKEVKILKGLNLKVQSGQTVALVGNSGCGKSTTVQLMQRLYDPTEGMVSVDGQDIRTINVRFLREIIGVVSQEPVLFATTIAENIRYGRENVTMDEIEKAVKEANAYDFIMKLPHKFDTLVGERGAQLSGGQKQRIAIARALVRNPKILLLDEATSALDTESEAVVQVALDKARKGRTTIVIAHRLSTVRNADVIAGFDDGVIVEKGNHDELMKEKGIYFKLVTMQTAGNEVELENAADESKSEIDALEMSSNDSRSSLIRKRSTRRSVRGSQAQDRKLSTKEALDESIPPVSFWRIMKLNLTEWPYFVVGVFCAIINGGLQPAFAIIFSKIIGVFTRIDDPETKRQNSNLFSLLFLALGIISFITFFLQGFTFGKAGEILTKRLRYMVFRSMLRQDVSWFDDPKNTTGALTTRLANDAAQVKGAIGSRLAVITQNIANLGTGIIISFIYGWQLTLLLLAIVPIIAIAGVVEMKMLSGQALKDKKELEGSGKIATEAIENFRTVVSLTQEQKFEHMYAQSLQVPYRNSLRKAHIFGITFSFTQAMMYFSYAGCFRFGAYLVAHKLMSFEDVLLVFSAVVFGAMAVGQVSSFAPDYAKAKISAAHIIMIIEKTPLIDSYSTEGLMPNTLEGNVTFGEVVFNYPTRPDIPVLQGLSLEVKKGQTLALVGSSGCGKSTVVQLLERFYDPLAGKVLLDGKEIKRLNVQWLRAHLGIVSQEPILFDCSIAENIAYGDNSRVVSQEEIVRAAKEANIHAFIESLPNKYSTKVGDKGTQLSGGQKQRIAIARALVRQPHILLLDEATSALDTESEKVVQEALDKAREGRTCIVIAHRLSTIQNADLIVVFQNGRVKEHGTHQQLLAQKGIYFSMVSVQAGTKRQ

## ^3H-vinblastine
[1]
  Apical to basolateral transport in the presence of verapamil: strongly increased
  Basolateral to apical transport in the presence of verapamil: strongly decreased
With and without 250 μM verapamil
  PgP substrate status: substrate of PgP

— patent US20050170394A1 (priority 2004, published 2005)
